By UniProt entry, the sequences of proteins in these tests, tags left out.
UniProt P35372, whole entry, looked up: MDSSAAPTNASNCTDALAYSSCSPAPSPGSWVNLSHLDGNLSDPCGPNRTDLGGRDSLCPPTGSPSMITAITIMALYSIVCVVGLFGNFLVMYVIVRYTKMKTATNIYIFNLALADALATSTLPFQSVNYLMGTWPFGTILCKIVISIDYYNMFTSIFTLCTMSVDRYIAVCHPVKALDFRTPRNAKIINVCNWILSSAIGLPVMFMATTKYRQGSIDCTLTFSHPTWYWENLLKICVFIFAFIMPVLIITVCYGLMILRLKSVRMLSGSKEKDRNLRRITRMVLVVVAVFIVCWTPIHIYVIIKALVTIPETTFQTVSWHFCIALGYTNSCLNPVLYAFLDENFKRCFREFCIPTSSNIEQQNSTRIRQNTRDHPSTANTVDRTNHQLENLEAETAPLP
UniProt P41143, whole entry, looked up: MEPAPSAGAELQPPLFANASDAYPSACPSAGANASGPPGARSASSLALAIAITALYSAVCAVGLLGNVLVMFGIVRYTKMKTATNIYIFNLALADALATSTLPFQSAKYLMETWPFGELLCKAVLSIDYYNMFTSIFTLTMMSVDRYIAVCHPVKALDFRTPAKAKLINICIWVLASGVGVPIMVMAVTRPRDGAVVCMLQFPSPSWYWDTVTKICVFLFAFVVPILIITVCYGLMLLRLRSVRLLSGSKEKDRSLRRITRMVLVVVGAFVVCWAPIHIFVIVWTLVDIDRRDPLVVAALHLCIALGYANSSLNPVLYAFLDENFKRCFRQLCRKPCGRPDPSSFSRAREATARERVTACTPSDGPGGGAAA

This is a selection; strong and weak results do not stand in their true shares. Activity calls are given as the source filed them. No stated cut-off is given here; in the data, active means inhibition above about 22% (passing the limit was not always enough); inactive means the rest.
The compounds below were run against Mu-type opioid receptor (Homo sapiens) + Delta-type opioid receptor (Homo sapiens) (UniProt P35372+P41143) (assay: inverse agonists of MOR-DOR heterodimerization, primary screen, cell-based, luminescence (AID 504357;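 further: 0% = cells with DMSO and 100% = wells without cells with DMSO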)). Details: cell-based MOR-DOR heterodimer luminescence, inverse agonism; at 9.3 µM; hits give high values.
With Cn1c(=O)c2ncn(CC(=O)NC3CCCCCC3)c2n(C)c1=O the inhibition was inactive: 9.36%. For CC(C)[C@H](NC(=O)N1CCn2c1nc1ccccc12)C(=O)NCc1ccc2c(c1)OCO2, the inhibition was inactive: 11.2%. With Cn1c(=O)n(Cc2ccc(Cl)cc2)c(=O)c2c1nc1n2CCN1Cc1ccco1 the inhibition was inactive: -5.47%. With O=C(Cn1cnc2ccccc21)NCCCN1CCOCC1 the inhibition was inactive: 7.06%. In the case of CC(C)[C@H](NC(=O)N1CCn2c1nc1ccccc12)C(=O)N[C@H](C(=O)O)c1ccccc1, the inhibition is reported as inactive: 10.8%. For CSc1nc(N)nc2c1ncn2CC(=O)N[C@H](CO)Cc1c[nH]c2ccccc12, the inhibition was inactive: 13.2%. With Cc1ccc2c(c1)C1CN(C)CCC1N2C(=O)c1cccnc1Cl (stereo unspecified) the inhibition was inactive: 2.35%. O=[N+]([O-])c1ccccc1NC1CCN(Cc2ccccc2)CC1 was tested, and the inhibition was inactive: 2.81%. In the case of O=P1(N(CCCl)CCCl)OCCCS1 (stereo unspecified), the inhibition is reported as inactive: 8.6%. For Cc1ccc2c(c1)C1CN(C)CCC1N2C(=O)Nc1ccc(Cl)cc1 (stereo unspecified), the inhibition was inactive: -20.1%. CCN(CC)CCn1c(=N)n(CC(O)c2ccco2)c2ccccc21 (stereo unspecified) was tested, and the inhibition was inactive: 8.86%. CC(C)Oc1cccnc1N(C)C1CCN(Cc2ccccc2)CC1 was tested, and the inhibition was inactive: 4.69%. In the case of COc1ccc(Cc2nnc(NC(=O)Cn3cnc4c3c(=O)n(C)c(=O)n4C)s2)cc1, the inhibition is reported as inactive: 8.5%. With COCCCNC(=O)Cn1cnc2c(OCc3ccccc3)ncnc21 the inhibition was inactive: 13.5%. With CCOC(=O)Nc1ccc2c(c1)nc1n2CCN(CCOC)C1 the inhibition was inactive: 9.07%. With Cc1ccc2c(c1)C1CN(C)CCC1N2CC(=O)N(C)c1ccccc1 (stereo unspecified) the inhibition was inactive: 4.19%. With N#CCC(=O)N/N=C\c1ccccc1OC/C=C/c1ccccc1 the inhibition was inactive: -6.96%. In the case of O=C(CCCN1CCC2(CC1)C(=O)NCN2c1ccccc1)c1ccc(F)cc1, the inhibition is reported as inactive: -12.6%. In the case of Cn1c(=O)c2c(nc(CN3CCN(c4ccc(F)cc4)CC3)n2CCN2CCOCC2)n(C)c1=O, the inhibition is reported as inactive: 9.36%. For COc1cc(NC(=O)Cn2c(-c3cncs3)nc3ccccc32)cc(OC)c1OC, the inhibition was inactive: 7.58%. In the case of Cc1ccc(-c2csc(N3CCN(c4cc5c(cc4Cl)nc(C)n5CCN4CCCCC4)CC3)n2)cc1, the inhibition is reported as inactive: -4.86%. For Cc1cc(NC(=O)CSc2nc3ccccc3n2CC(=O)N2CCCCC2)no1, the inhibition was inactive: 2.06%. In the case of COC(=O)C[C@H](NC(=O)Cn1cnc2c(SC)nc(N)nc21)C(=O)OC, the inhibition is reported as inactive: 12.9%. With Cn1c(=O)c2c(nc(NCCc3ccccc3)n2CC(=O)NCCc2ccccc2)n(C)c1=O the inhibition was inactive: -0.8%. In the case of O=C(O)CNc1ccc([As](=O)(O)O)cc1, the inhibition is reported as inactive: 11.8%. With Cc1cccc(NC(=O)Cn2c(/C=C/c3ccccc3)nc3ccccc32)c1 the inhibition was inactive: -1.95%. O=C(c1ccccc1Br)N1CCn2c1nc1ccccc12 was tested, and the inhibition was inactive: 11.9%. With CCc1nc2ccccc2n1CC(=O)NC1CCS(=O)(=O)C1 (stereo unspecified) the inhibition was inactive: 10.3%. In the case of COc1cccc(NC(=O)Cn2c(-c3cncs3)nc3ccccc32)c1, the inhibition is reported as inactive: 8.9%. With COc1cccc(CNC(=O)CCNC(=O)N2CCn3c2nc2ccccc23)c1 the inhibition was inactive: 11.3%. In the case of O=C1CCC(=O)N1c1ccc(NC2CCN(Cc3ccccc3)CC2)c([N+](=O)[O-])c1, the inhibition is reported as inactive: 14.5%. With COC(=O)c1ccc(N2C(=O)CC(N3CCC(n4c(=O)[nH]c5ccccc54)CC3)C2=O)cc1 (stereo unspecified) the inhibition was inactive: 4.21%. In the case of CN(C)C1(c2nnnn2-c2ccc(Cl)cc2)CCCCC1, the inhibition is reported as inactive: -8.2%. For O=C(Cn1cnc2ccccc21)N1CCN(S(=O)(=O)c2ccccc2)CC1, the inhibition was inactive: 9.28%. With CCOC(=O)N1CCN(c2c(NC3CCN(Cc4ccccc4)CC3)c(=O)c2=O)CC1 the inhibition was inactive: 0.41%. CC(C)Sc1nc2ccccc2n1CC(N)=O was tested, and the inhibition was inactive: 15.1%. Cc1noc(C)c1S(=O)(=O)N(CC(=O)N1CCn2c1nc1ccccc12)c1ccc(C(C)C)cc1 was tested, and the inhibition was inactive: 0.47%. In the case of O=[N+]([O-])c1ccc(NC2CCN(Cc3ccccc3)CC2)c2ccncc12, the inhibition is reported as inactive: -16.4%. For Cc1nn(CC(=O)Nc2ccc3c(c2)nc2n3CCN(C3CCCCC3)C2)c(=O)c2ccccc12, the inhibition was inactive: 5.59%. For COc1ccc(Cc2nc3ccccc3n2CC(=O)N/N=C/c2ccc(O)cc2)cc1OC, the inhibition was inactive: 5.17%. In the case of COC(=O)C1(C)COP(=O)(Nc2ccccc2)OC1 (stereo unspecified), the inhibition is reported as inactive: 13.6%. In the case of O=[N+]([O-])c1cccc(NC2=NCC(CBr)S2)c1 (stereo unspecified), the inhibition is reported as inactive: 18.9%. With CSc1nc(N)nc2c1ncn2CC(=O)N1CCN(c2ccccn2)CC1 the inhibition was inactive: 8.97%. CN1CCN(c2nc3c(c(=O)n(C)c(=O)n3C)n2CC(N)=O)CC1 was tested, and the inhibition was inactive: -10.3%. For O=S(=O)(Cc1ccccc1)N1CCn2c(nc3ccccc32)C1, the inhibition was inactive: 7.62%. In the case of CCN(CC)S(=O)(=O)c1ccc(NC2CCN(Cc3ccccc3)CC2)nc1, the inhibition is reported as inactive: -7.58%. For CC1CCCN(Cc2nc3c(c(=O)n(C)c(=O)n3C)n2CC(N)=O)C1 (stereo unspecified), the inhibition was inactive: 20.5%. With CCCn1c(=O)[nH]c(=O)c2c1nc(-c1ccc(OC(F)F)cc1)n2CCN1CCOCC1 the inhibition was inactive: 7%. With Cn1c(=O)c2ncn(CC(=O)Nc3nc(-c4ccc(Cl)cc4)cs3)c2n(C)c1=O the inhibition was inactive: 3.19%. O=[N+]([O-])c1ncn(CCn2ncnc2[N+](=O)[O-])n1 was tested, and the inhibition was inactive: -5.7%. CC(C)C[C@H](NC(=O)N1CCn2c1nc1ccccc12)C(=O)NCC1CCCO1 (stereo partly specified) was tested, and the inhibition was inactive: 13.9%. CCOc1ccc(NC(=O)CN(C)C(=O)Cn2cnc3c2c(=O)n(C)c(=O)n3C)cc1OCC was tested, and the inhibition was inactive: 7.27%. Cc1ccc2c(c1)C1CN(C)CCC1N2C(=O)Nc1cccc(C(F)(F)F)c1 (stereo unspecified) was tested, and the inhibition was inactive: -37.7%. For CC(C)(C)NC(=O)Cn1c(SCC(=O)N2CCCCCC2)nc2ccccc21, the inhibition was inactive: 10.2%. With CSCC[C@H](NC(=O)N1CCn2c1nc1ccccc12)C(=O)NCc1ccco1 the inhibition was inactive: -5.04%. C/C(=N\NC(=O)Cn1cnc2ccccc21)c1cccs1 was tested, and the inhibition was inactive: 8.04%. For CN(C)C(=O)Cn1c(=O)n(S(=O)(=O)c2ccccc2)c2ccccc21, the inhibition was inactive: 0.26%. In the case of O=[N+]([O-])c1ccc2c(c1)nc1n2CCN(CC2CCCO2)C1 (stereo unspecified), the inhibition is reported as inactive: 5.89%. With CC(C)OC(=O)c1ccc(NC(=O)Cn2c(-c3nonc3N)nc3ccccc32)cc1 the inhibition was inactive: -5.78%. In the case of C/C(=N\NC(=O)Cn1c(-c2ccccn2)nc2ccccc21)c1ccccc1, the inhibition is reported as inactive: 32.2%. For Cn1c(=O)c2c(ncn2CC(=O)Nc2ccc(N3CCOCC3)cc2)n(C)c1=O, the inhibition was inactive: 13.3%. For CSc1nc2ccccc2n1CC(=O)N1CCCCC1, the inhibition was inactive: 12.1%. CSCC[C@H](NC(=O)N1CCn2c1nc1ccccc12)C(=O)N[C@@H](C(=O)O)c1ccccc1 was tested, and the inhibition was inactive: 9.33%. With CC(C)(C)C(=O)NC(Sc1ccncn1)C(Cl)(Cl)Cl (stereo unspecified) the inhibition was inactive: -1.48%. With COc1ccc(CN(C)C(=O)Cn2cnc3c(NCc4ccccc4)ncnc32)cc1OC the inhibition was inactive: 12.3%. CCN(Cc1ccccc1)C(=O)Cn1c(C(C)O)nc2ccccc21 (stereo unspecified) was tested, and the inhibition was inactive: 12.8%. Cn1c(=O)c2c(ncn2CC(=O)NC(C)(C)C)n(C)c1=O was tested, and the inhibition was inactive: 7.82%. With CCCCc1nc2ccccc2n1CC(=O)NN the inhibition was inactive: 6.3%. With c1ccc(CN2CCC(Nc3ncnc4sccc34)CC2)cc1 the inhibition was inactive: 14.3%. With O=C(Cn1c(COc2ccccc2)nc2ccccc21)Nc1cccc(Cl)c1 the inhibition was inactive: -117%. For CCCCOC(=O)Cn1c(=N)n(CCN(CC)CC)c2ccccc21, the inhibition was inactive: 22.3%. In the case of C[C@@H](NC(=O)Cn1cnc2c(NCc3ccccc3)ncnc21)c1cccc2ccccc12, the inhibition is reported as inactive: 21.9%. With COc1ccc(NC2CCN(C3CC(=O)N(c4ccc(F)c(Cl)c4)C3=O)CC2)cc1 (stereo unspecified) the inhibition was inactive: -10.5%. In the case of Cc1cccc(NC(=O)Cn2c(=O)n(C)c3ccccc32)c1, the inhibition is reported as inactive: 15.2%. For Cn1c(=O)c2c(ncn2CC(=O)Nc2nc3ccc(F)cc3s2)n(C)c1=O, the inhibition was inactive: 8.2%. For c1ccc(CN2CCC(Nc3nc(-c4cccs4)nc4ccccc34)CC2)cc1, the inhibition was inactive: -31.3%. For Cc1ccc(NP(=O)(Oc2ccccc2F)Oc2ccccc2F)nc1, the inhibition was inactive: 4.65%. In the case of CN(C(=O)Cc1ccc(Cl)c(Cl)c1)[C@H]1CCCC[C@@H]1N1CCCC1, the inhibition is reported as inactive: -3.28%. With O=C(CSc1nc2ccccc2n1CC(=O)N1CCCC1)NCc1ccc2c(c1)OCO2 the inhibition was inactive: 0.65%. For Cc1cc(SC(NC(=O)c2ccc(F)cc2)C(Cl)(Cl)Cl)ncn1 (stereo unspecified), the inhibition was inactive: -1.84%. With Cc1cccc(OCC(O)Cn2c(=N)n(CCN3CCOCC3)c3ccccc32)c1 (stereo unspecified) the inhibition was inactive: 12.2%. With CCOc1ccc2nc(NC(=O)Cn3cnc4c3c(=O)n(C)c(=O)n4C)sc2c1 the inhibition was inactive: -1.97%. O=C(Cn1c(/C=C/c2ccccc2)nc2ccccc21)Nc1ccc(F)cc1 was tested, and the inhibition was inactive: -10.7%. For Cc1csc2c(NC3CCN(Cc4ccccc4)CC3)ncnc12, the inhibition was inactive: 3.69%. CCC(=O)Nc1nc2ccccc2n1CCN1CCOCC1 was tested, and the inhibition was inactive: 11.9%. In the case of CCOP(=O)(Nc1ccccc1)OCC, the inhibition is reported as inactive: 6.94%. In the case of O=C(Cn1c(Cc2ccccc2)nc2ccccc21)NCc1ccc2c(c1)OCO2, the inhibition is reported as inactive: 4.91%. With O=P(Nc1nc2ccc(Cl)cc2s1)(c1ccccc1)c1ccccc1 the inhibition was inactive: 11.3%. For CCOC(=O)c1ccccc1NC(=O)Cn1c(-c2nonc2N)nc2ccccc21, the inhibition was inactive: 5.72%. C(=N\c1nc2ccccc2n1CCN1CCCCC1)/c1ccc2c(c1)OCO2 was tested, and the inhibition was inactive: 1.88%. In the case of CC(C)NC(=O)CC1C(=O)N(Cc2ccccc2)C(C)c2nc3ccccc3n21 (stereo unspecified), the inhibition is reported as inactive: 15.5%.
